For one compound, activation results are on record in PubChem BioAssay AID493193 (Broad Institute, 2011).

The list shows a part of the results, in another mix than the full data. Active and inactive are the calls of the source. The rule behind the calls is not given here.

The test can be described thus: PubChem AID 493193. The settings on record: U2OS HRE-luciferase reporter, luminescence, HIF pathway activation; at 38 µM (top of the series). On the technique in general: A reporter such as luciferase makes a cellular process visible.

Take `O=c1[nH]c2ccccc2n1C1CCN(Cc2ccc(O)c3ncccc23)CC1`: the activation is inactive: -0.083%.
